The assay has as its target T1, Carbonic anhydrase (Methanobacterium thermoautotrophicum, UniProt Q50565).
T1 sequence (Q50565 whole entry): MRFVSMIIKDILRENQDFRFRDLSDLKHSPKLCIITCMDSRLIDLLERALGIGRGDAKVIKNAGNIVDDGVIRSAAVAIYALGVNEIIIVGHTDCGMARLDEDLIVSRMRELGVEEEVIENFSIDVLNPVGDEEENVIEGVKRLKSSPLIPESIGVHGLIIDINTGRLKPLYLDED
Also noted: species or system Methanothermobacter thermautotrophicus str. Delta H.

pKi: −log10 of the molar value.

Results on 1 compound are retold here after ChEMBL document CHEMBL1137924, “Carbonic anhydrase inhibitors. Inhibition of the beta-class enzyme from the methanoarchaeon Methanobacterium thermoautotrophicum (Cab) with anions” (Bioorg Med Chem Lett, 2004).

Broadly, the pKi is −log10 of the Ki, conventionally taken in molar units.

In the case of `O=S(=O)(O)O` [SULFURIC ACID], the pKi was 0.02.
